Compound activity (PubChem BioAssay)
A selection: hits, their analogues and other compounds. The true share with any hit is near 3.7%.
ClpP mod: qHTS Assay for Activators of ClpP; ATP-dependent Clp protease proteolytic subunit (Bacillus subtilis (strain 168)), P80244; purified B. subtilis ClpP, FRET peptide cleavage, 20 min; Potency, µM (titrated, usually from 57.5 µM); 340,000 compounds, 1.9% hits; AID 651965, 2013; active means well fitted falling curve with a large enough effect; inconclusive means small, poorly fitted or top-dose-only effect; inactive means no such curve, though single readings can be large or run the other way; further: the source files actives as falling curves though it sought activators and does not explain the sign; nearly all actives have a fitted effect of over 65% in size
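Buffer: 100 mM Tris/HCl pH8, 100 mM KCl, 0.05% low protease BSA, 2.5% glycerol, 0.01% Tween-20. ClpP 10 microg/mL final; 20 min RT; delta FRET normalized to ADEP and DMSO controls.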
Nrf2 block: inhibitors of Nrf2 signaling; Potency, µM (series often up to 46 µM), hits mostly inhibitors; 360,000 compounds, 2.1% hits; A549 ARE-Fluc reporter, luciferase luminescence, 18-24 h; AID 504444; further: nearly all actives have a fitted effect of over 60% in size
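Two sequential reads on A549 ARE_Fluc cells exposed to compound for 18-24 h: a CellTiter-Fluor fluorescence read for viability, then a luciferase luminescence read for Nrf2/ARE activity.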
miR-21 reporter: miR-21 reporter, rising signal | AID 2288 | HeLa miR-21 FLuc reporter, luciferase, 48 h | 340,000 tested, under 10 active | Potency, µM (titrated, usually from 38.3 µM); active = well fitted rising curve with a large enough effect; inconclusive = small, poorly fitted or top-dose-only effect; inactive = no such curve, though single readings can be large or run the other way;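 also: miR-21 action dims this reporter so a rising signal means less miR-21 action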
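Using DMEM plus 10% FBS, HeLa miR-21-FLuc cells are incubated with test compounds (final up to about 40uM) for 48 hours; firefly luciferase signal is then imaged following reagent-mediated lysis.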
Nrf2 activator: activators of Nrf2 (ARE) signaling. AREc32 ARE-luciferase reporter (MCF7-derived line), luminescence, 24 h. Potency, µM (series often up to 46.1 µM), most hits filed as activators. 410,000 compounds, 0.31% hits; further: nearly all actives have a fitted effect of over 65% in size
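Reporter line AREc32 (ARE-Fluc), seeded overnight in OPTI-MEM with 5% FBS; compound pin-transferred, 24 hr at 37 deg C, 5% CO2; luminescent read-out.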
A549 tox: kills or reduces viability of A549 cells in Nrf2 counter-screen. A549 ARE-Fluc cells, CellTiter-Fluor viability, 18-24 h. Potency, µM (titrated, usually from 46 µM), hits mostly inhibitors. 390,000 compounds, 0.16% hits. AID 504648
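A549 ARE-Fluc cells in 5% FBS OPTI-MEM, 5000 cells/well, rested 2 h then exposed to compounds in concentration-response for 18-24 h at 37 °C. Viability by CellTiter-Fluor fluorescence (Ex 405/Em 525) after 30 min; luciferase luminescence (BugLite, 15 min, RT) read afterwards.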
IL2 activator: activates IL-2 in a cell-based reporter assay; IL-2 activation reporter assay, cell-based qHTS; stimulated with anti-CD3/CD4/CD28 beads; in transgenic mouse T cells; activation, % (series mostly up to about 46 µM); 360,000 compounds, 0.065% hits; AID 652025; in the data active means activation above about 50%; inconclusive means mostly about 30% to 49%
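Unstimulated transgenic mouse T cells preincubated 60 min with compound, then stimulated with anti-CD3/anti-CD4-coated beads plus anti-CD28 for 18 h at 37 degrees C. IL-2 response read as EGFP and DsRed fluorescence by plate cytometry.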
A number is an active result; . = inactive; ? = inconclusive; / = not tested or not shown; [ ] = another dose, or the depositor's remark. Unless noted, the call rests on the fitted dose curve; in most records, active means well fitted curve in the direction sought with a large enough effect; inconclusive means small, poorly fitted or top-dose-only effect, or another doubt; inactive means no such curve, though single readings can be large; an effect the other way counts as inactive or inconclusive.

Chains of the proteins cited; added tags and fusions are not shown.
ATP-dependent Clp protease proteolytic subunit (Bacillus subtilis (strain 168)), P80244, UniProt P80244, whole entry, looked up: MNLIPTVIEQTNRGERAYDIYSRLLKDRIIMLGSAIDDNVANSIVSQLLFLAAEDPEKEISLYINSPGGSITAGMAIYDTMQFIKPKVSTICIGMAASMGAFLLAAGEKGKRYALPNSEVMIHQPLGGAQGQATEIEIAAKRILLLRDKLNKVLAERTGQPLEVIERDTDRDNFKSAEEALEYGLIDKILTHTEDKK

SMILES	ClpP mod	Nrf2 block	miR-21 reporter	Nrf2 activator	A549 tox	IL2 activator
O=S(=O)(NCc1ccc(F)cc1)c1ccc(N2CCCCS2(=O)=O)cc1	.	/	.	.	.	/
Cc1cnc2ccccc2c1/C=C/c1ccc(N(C)C)cc1	.	/	/	/	/	/
Cc1ccc2nc(-c3ccc(C)o3)c(Nc3ccc(Cl)cc3)n2c1	14µM	.	/	/	.	/
Cc1ccccc1Nc1c(-c2ccc(Br)o2)nc2ccc(Cl)cn12	28µM	.	.	.	.	/
O=C(c1ccccc1Cl)N1CCCCC1CCN1CCOCC1 (stereo not drawn)	.	.	.	.	.	/
CN(C)c1ccc(/C=C/c2ccnc3ccccc23)c(N)c1	.	/	/	/	/	/
C=CCOC(=O)C1=C(C)NC(C)=C(C(=O)OCC=C)C1c1ccc(O)cc1	22µM	.	.	.	.	.
C=CCOC(=O)C1=C(C)NC(=O)NC1c1ccc(O)cc1 (stereo not drawn)	.	.	.	.	.	.
CNc1ccccc1C(C)(C)c1cc(-c2ccc(F)cc2)no1	.	8.2µM	?	.[9.22 µM]	.	.
Cc1ccc2c(/C=C/c3ccc(N(C)C)cc3)ccnc2c1	.	/	/	/	/	/
CNC(=S)N(CCc1cccc(C)c1)Cc1cc2cc(OC)c(OC)cc2[nH]c1=O	?	.	.	.	.	.
COc1cc2cc(CN(CCO)C(=O)c3cccs3)c(=O)[nH]c2cc1OC	32µM	/	.	.	.	.
COc1cc2cc(CN(CCc3cccc(C)c3)C(=S)NCCCN(C)C)c(=O)[nH]c2cc1OC	28µM	.	.	.	.	.
Cc1cccc(NC(=O)c2oc3ccc(S(=O)(=O)N4CCCCC4)cc3c2C)c1C	.	/	.	.	.	/
COc1ccc(CCNC(=O)Cn2nc(C)c3c(C)n(-c4ccccc4)nc3c2=O)c(OC)c1	.	.	.	.	.	.
COc1ccc(OC)c(CCNC(=O)Cn2nc(C)c3c(C)n(-c4ccc(C)cc4)nc3c2=O)c1	/	10µM	.	.	.	.
Cc1sc(N)nc1-c1ccccc1	.	.	.	.	.	.
Nc1c(-c2ccccc2)nc(Cl)nc1-c1ccccc1	32µM	?	.	.	.	.
O=C(Nc1ccccc1)N(Cc1ccccc1)CC(O)C(F)(F)F (stereo not drawn)	28µM	/	.	.	.	.
O=C(Nc1cccc(F)c1)N(Cc1ccc(Cl)cc1)CC(O)C(F)(F)F (stereo not drawn)	.	?	?	.	.	.
COc1ccc(-c2nc(-c3ccccc3)c(-c3cccs3)[nH]2)cc1OC	28µM	?	.	.	?	.
Oc1cccc(-c2nc(-c3cccs3)c(-c3cccs3)[nH]2)c1	25µM	.	?	.	.	/
Cc1ccc(-c2nc(-c3cccs3)c(-c3cccs3)[nH]2)cc1	?	.	.	.	.	/
COc1ccc(-c2nc(-c3cccs3)c(-c3cccs3)[nH]2)cc1OC	35µM	.	.	.	.	.
O=[N+]([O-])c1cccc(-c2nc(-c3cccs3)c(-c3cccs3)[nH]2)c1	.	?	.	.	.	.
SMILES	ClpP mod	Nrf2 block	miR-21 reporter	Nrf2 activator	A549 tox	IL2 activator
Cc1ccsc1-c1nc(-c2ccccc2)c(-c2ccccc2)[nH]1	28µM	.	.	.	.	.
O=C(CSc1nccn1Cc1ccc(F)cc1)Nc1nc2ccccc2s1	.	/	.	.	.	/
CCCC(=O)OCCNc1cc(SCc2ccco2)c2nonc2c1[N+](=O)[O-]	.	.	.	?	?	.
CC(=O)OCCCNc1cc(SCc2ccco2)c2nonc2c1[N+](=O)[O-]	.	.	.	?	16µM	.
CN1/C(=C\C(=O)C[n+]2ccc3ccccc3c2)C(C)(C)c2ccccc21	/	10µM	.	.	?	.
COc1ccccc1OCC(=O)/C=C1/N(C)c2ccccc2C1(C)C	/	?	.	.	.	.
Cc1ccc(C(=O)NC(=S)/C=C2\N(C)c3ccccc3C2(C)C)cc1	.	18µM	.	.	?	.
CN1/C(=C\C(=O)c2cncc(Br)c2)C(C)(C)c2ccccc21	.	23µM	.	.	.	.
CN1/C(=C\C(=O)c2cccnc2)C(C)(C)c2ccccc21	.	?	.	.	.	.
COc1ccc(-n2c(SCC(=O)NCc3ccc(F)cc3)nc3c([nH]c4ccccc43)c2=O)cc1	?	/	.	.	.	/
COc1ccc(C(CC(=O)c2ccc(O)cc2)S(=O)(=O)c2ccc(C)cc2)cc1 (stereo not drawn)	.	.	.	13µM	.	.
COc1cc(F)c(S(=O)(=O)N2CCCN(S(=O)(=O)c3cccc(NC(C)=O)c3)CC2)c(F)c1	/	16µM	/	/	.	/
O=C(COc1ccc2ccc(=O)oc2c1)Nc1cccc(S(=O)(=O)N2CCCCC2)c1	35µM	.	/	.	.	.
CC(=O)Nc1cccc(S(=O)(=O)N2CCCCCC2)c1	.	.	.	.	.	.
O=C(Cn1nnc(-c2ccccc2)n1)Nc1cccc(S(=O)(=O)N2CCCC2)c1	32µM	16µM	/	.	.	.
CC1CCC2(CC1)NC(=O)N(CC(=O)Nc1cccc(S(=O)(=O)N3CCCC3)c1)C2=O (stereo not drawn)	.	5.2µM	/	.	.	.
O=C(Cn1cnnn1)Nc1cccc(S(=O)(=O)N2CCCCC2)c1	/	.	.	.	.	.
COCCCNS(=O)(=O)c1ccc(N2CCCCS2(=O)=O)cc1	.	/	.	.	.	/
Cc1cc2n(n1)CCCN2C(=O)Nc1ccc(C)c(Cl)c1	.	.	.	.	.	/
CCOc1ccccc1OCC(=O)Nc1cccc(S(=O)(=O)N2CCCCCC2)c1	.	.	/	.	.	.
CC(CNC(=O)Cn1ccc2cc(S(=O)(=O)N3CCCCCC3)ccc21)c1ccccc1 (stereo not drawn)	.	21µM	.	.	.	/
CCn1ccc2cc(S(=O)(=O)N3CCC(C(=O)NCC(C)c4ccccc4)CC3)ccc21 (stereo not drawn)	.	/	.	.	.	/
CC(=O)c1ccccc1OCC(=O)Nc1cccc(S(=O)(=O)N2CCCC2)c1	.	13µM	/	.	.	.
CCN(CC)S(=O)(=O)c1ccc(C)c(NC(=S)Nc2cccc(S(=O)(=O)N3CCCCCC3)c2)c1	.	23µM	.	.	.	.
CCCc1ccc(S(=O)(=O)N2CCN(C(C)C(=O)NCc3ccc(OC)cc3)CC2)cc1 (stereo not drawn)	.	16µM	/	.	?	.
COc1ccc(CNC(=O)Cn2ncc3c(=O)oc4ccccc4c32)c(OC)c1	.	.	.	.	.	/
Cc1cc(C)c(S(=O)(=O)Nc2ccc(-c3ccc(N4CCCCC4)nn3)cc2)cc1C	.	/	.	.	?	/
